Legend:
[1] = Inhibitory activity against Inducible nitric oxide synthase
[2] = Inhibitory activity against endothelial nitric oxide synthase (eNOS)
[3] = Inhibitory activity against neuronal nitric oxide synthase
[4] = Selectivity for neuronal over endothelial nitric oxide synthase

Row | Structure (SMILES) | Ki [1] | Ki [2] | Ki [3] | Selectivity [4]
1 | NCCc1ccc(NC[C@@H](N)CCC/N=C(\N)N[N+](=O)[O-])cc1 | 360 µM | 414 µM |  | 
2 | NCCc1cccc(NC[C@@H](N)CCC/N=C(\N)N[N+](=O)[O-])c1 | 260 µM | 100 µM | 2.21 µM | 45.2

Source: ChEMBL document CHEMBL1145940, “Computer modeling of selective regions in the active site of nitric oxide synthases: implication for the design of isoform-selective inhibitors” (J Med Chem, 2003)
